Data as given in patent US20250171463A1 (BIOGEN MA INC., priority 2022, published 2025).

Protein sequences, listed by entry. Tags and fused reporters are not part of them.
UniProt Q15125, whole entry: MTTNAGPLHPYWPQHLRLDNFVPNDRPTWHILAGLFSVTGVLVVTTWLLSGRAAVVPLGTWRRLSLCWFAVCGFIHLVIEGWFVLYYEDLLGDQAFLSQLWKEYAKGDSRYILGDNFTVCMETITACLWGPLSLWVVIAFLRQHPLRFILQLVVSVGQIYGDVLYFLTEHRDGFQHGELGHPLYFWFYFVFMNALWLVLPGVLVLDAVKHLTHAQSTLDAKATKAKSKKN

Target: EBP (Homo sapiens, UniProt Q15125)
Assay: EBP Functional Assay (EBP immunoaffinity LC-MS assay)
Conditions: read-out: EBP Functional Assay; EBP enzyme from HEK293T cells; 30 min with inhibitor, then zymosterol-d5, 37° C., 4 h; percent conversion to dehydrolathosterol-d5 by LC-APCI MRM MS
Method: The EBP immunoaffinity (IA) LC-MS assay measures the potency of small molecule inhibitors of EBP by quantifying their concentration-dependent changes in the enzyme's substrate and product using liquid chromatography atmospheric pressure chemical ionization multiple reaction monitoring mass spectrometry (LC-APCI MRM MS). HEK293T cells were utilized as the source of EBP enzyme. The enzyme was incubated with the small molecule inhibitors at variable concentrations for 30 min. Deuterated form of EBP substrate, zymosterol-d5 (Avanti Polar Lipids, Cat #700068P-1 mg), was then added and the plate was incubated at 37° C. for 4 h. Finally, the sterol isomers were extracted and injected to LC-APCI MRM MS. MRM transition used for the quantification for both zymosterol and […] (substrate and product of EBP enzymatic reaction, respectively) is 372.3-203.2, CE 30 and DP 80 in positive ion mode. Percent conversion of the zymosterol-d5 to dehydrolathosterol-d5 was used to derive IC50 curves. Tasin-1 (1′-[(4-Methoxyphenyl)sulfonyl]-4-methyl-1,4′-bipiperidine, CAS 792927-06-1) was used as the reference small molecule inhibitor.
Percent conversion versus the compound concentration data were fit to the following 4-parameter logistic model to generate IC50 curves: […]

IC50: < 100 nM
SMILES: Cc1nc(C(F)(F)F)ccc1S(=O)(=O)N1CC2(CN(C3CCOC(C)C3)C2)C1 (single isomer, unassigned)
